Results as given in ChEMBL document CHEMBL3352706, “Novel cyclic biphalin analogue with improved antinociceptive properties” (2014).
pEC50, pIC50, pKi: −log10 of the molar value.

By UniProt entry, the sequences of proteins in these tests, tags left out. Where a name states a change or a piece, a line headed by the entry shows the natural chain unless it says otherwise.
UniProt P34975: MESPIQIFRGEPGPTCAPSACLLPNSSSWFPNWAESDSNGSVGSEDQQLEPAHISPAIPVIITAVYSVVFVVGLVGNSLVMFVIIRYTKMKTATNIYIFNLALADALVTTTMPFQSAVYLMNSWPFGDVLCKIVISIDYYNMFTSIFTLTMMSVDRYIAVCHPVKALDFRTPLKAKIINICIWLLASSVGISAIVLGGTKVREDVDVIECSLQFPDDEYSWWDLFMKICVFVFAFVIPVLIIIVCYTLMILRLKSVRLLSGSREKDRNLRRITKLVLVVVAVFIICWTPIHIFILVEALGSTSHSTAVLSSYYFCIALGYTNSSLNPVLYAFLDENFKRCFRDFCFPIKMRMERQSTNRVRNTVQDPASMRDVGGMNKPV
UniProt P33533, whole entry, looked up: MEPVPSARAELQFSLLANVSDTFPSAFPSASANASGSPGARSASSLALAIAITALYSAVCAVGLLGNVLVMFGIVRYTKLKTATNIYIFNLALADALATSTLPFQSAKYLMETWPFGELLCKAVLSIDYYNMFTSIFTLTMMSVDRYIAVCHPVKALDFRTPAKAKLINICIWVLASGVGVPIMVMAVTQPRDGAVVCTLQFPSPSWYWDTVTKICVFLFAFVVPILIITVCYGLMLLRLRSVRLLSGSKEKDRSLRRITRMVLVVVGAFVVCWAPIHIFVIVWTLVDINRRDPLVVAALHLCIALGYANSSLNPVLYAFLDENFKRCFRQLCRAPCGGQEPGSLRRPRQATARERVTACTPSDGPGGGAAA
UniProt P33535, whole entry, looked up: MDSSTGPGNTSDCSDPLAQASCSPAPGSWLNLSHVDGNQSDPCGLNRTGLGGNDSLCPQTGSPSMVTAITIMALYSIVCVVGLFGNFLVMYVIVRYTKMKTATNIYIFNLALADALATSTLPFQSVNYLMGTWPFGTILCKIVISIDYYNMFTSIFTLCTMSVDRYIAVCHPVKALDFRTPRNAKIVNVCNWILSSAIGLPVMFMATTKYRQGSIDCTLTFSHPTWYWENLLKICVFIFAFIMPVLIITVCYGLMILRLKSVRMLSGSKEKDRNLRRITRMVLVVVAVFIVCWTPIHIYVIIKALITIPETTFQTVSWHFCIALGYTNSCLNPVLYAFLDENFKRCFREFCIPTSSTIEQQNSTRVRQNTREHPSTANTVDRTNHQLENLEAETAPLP
UniProt P32300, whole entry, looked up: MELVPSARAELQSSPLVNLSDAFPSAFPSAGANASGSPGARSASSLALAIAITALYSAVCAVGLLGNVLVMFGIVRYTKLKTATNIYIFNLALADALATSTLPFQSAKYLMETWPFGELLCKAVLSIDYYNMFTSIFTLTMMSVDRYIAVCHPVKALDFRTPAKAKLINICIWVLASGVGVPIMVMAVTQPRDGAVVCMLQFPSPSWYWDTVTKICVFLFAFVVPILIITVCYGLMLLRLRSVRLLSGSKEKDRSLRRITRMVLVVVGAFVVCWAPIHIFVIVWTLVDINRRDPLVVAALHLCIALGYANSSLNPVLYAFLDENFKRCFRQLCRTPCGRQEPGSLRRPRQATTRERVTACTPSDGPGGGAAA
UniProt P97266, whole entry, looked up: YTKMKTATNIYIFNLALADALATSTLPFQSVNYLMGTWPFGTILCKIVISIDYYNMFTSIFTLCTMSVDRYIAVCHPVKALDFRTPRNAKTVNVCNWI

What was measured:
[1] = biological target: T1, Kappa-type opioid receptor (Rattus norvegicus, UniProt P34975); assay: Displacement of [3H]U69593 from kappa opioid receptor in Wistar rat brain membranes by liquid scintillation counting based competition binding assay; conditions: strain Wistar
[2] = biological target: T1, Kappa-type opioid receptor; assay: Agonist activity at rat kappa opioid receptor expressed in CHO cells by [35S]GTPgammaS binding assay
[3] = biological target: Delta-type opioid receptor (Rattus norvegicus, UniProt P33533); assay: Displacement of [3H]Ile5,6deltorphin II from delta opioid receptor in Wistar rat brain membranes by liquid scintillation counting based competition binding assay; conditions: strain Wistar
[4] = biological target: T2, Mu-type opioid receptor (Rattus norvegicus, UniProt P33535); assay: Displacement of [3H]DAMGO from mu opioid receptor in Wistar rat brain membranes by liquid scintillation counting based competition binding assay; conditions: strain Wistar
[5] = biological target: T3, Delta-type opioid receptor (Mus musculus, UniProt P32300); assay: Agonist activity at mouse delta opioid receptor expressed in CHO cells by [35S]GTPgammaS binding assay
[6] = biological target: T2, Mu-type opioid receptor; assay: Agonist activity at rat mu opioid receptor expressed in CHO cells by [35S]GTPgammaS binding assay
[7] = biological target: T3, Delta-type opioid receptor; assay: Agonist activity at delta opioid receptor in mouse vas deferens assessed as inhibition of electrically-induced smooth muscle contraction
[8] = biological target: Mu-type opioid receptor (Cavia porcellus, UniProt P97266); assay: Agonist activity at mu opioid receptor in Hartley guinea pig ileum longitudinal muscle myenteric plexus assessed as inhibition of electrically-induced smooth muscle contraction; conditions: strain Hartley
[9] = test system: Mus musculus; assay: Antinociceptive activity in CD1 mouse assessed as time required for maximal reduction in thermal nociception by at 0.1 nmol, icv by hot plate test
[10] = test system: Mus musculus; assay: Antinociceptive activity in CD1 mouse assessed as reduction in thermal nociception by at 0.1 nmol, icv measured 15 mins post dose by hot plate test
[11] = test system: Mus musculus; assay: Antinociceptive activity in CD1 mouse assessed as reduction in thermal nociception by measuring tail-flick latency at 0.1 nmol, icv measured 15 mins post dose by tail-flick assay; conditions: strain CD1, Tail
[12] = test system: Mus musculus; assay: Antinociceptive activity in CD1 mouse assessed as time required for maximal reduction in thermal nociception by measuring tail-flick latency at 0.1 nmol, icv by tail-flick assay; conditions: strain CD1, Tail

Structure (SMILES)	pKi [1]	EC50 [2]	pKi [3]	pKi [4]	pEC50 [5]	pEC50 [6]	pEC50 [2]	pIC50 [7]	pIC50 [8]	Time [9]	MPE [10]	MPE [11]	Time [12]	Ki [3]	Ki [4]	Ki [1]
C[C@@H](NC(=O)[C@@H](N)Cc1ccc(O)cc1)C(=O)NCC(=O)N[C@@H](Cc1ccccc1)C(=O)NNC(=O)[C@H](Cc1ccccc1)NC(=O)CNC(=O)[C@@H](C)NC(=O)[C@@H](N)Cc1ccc(O)cc1	6.55	Not Active	–	–	–	–	–	–	–	–	–	–	–	–	–	–
CC1(C)SSC(C)(C)[C@@H](NC(=O)[C@@H](N)Cc2ccc(O)cc2)C(=O)NCC(=O)N[C@@H](Cc2ccccc2)C(=O)NNC(=O)[C@H](Cc2ccccc2)NC(=O)CNC(=O)[C@@H]1NC(=O)[C@@H](N)Cc1ccc(O)cc1	6.59	–	8.28	8.72	8.15	7.12	6.32	8.14	7.68	15 min	95%	95%	15 min	–	–	–
CC1(C)SSC(C)(C)[C@H](NC(=O)[C@@H](N)Cc2ccc(O)cc2)C(=O)NCC(=O)N[C@@H](Cc2ccccc2)C(=O)NNC(=O)[C@H](Cc2ccccc2)NC(=O)CNC(=O)[C@H]1NC(=O)[C@@H](N)Cc1ccc(O)cc1	–	–	–	–	6.44	6.64	6.69	–	–	–	–	–	–	Not Active	Not Active	Not Active
